# Patent publication US20130280318A1, “Tissue Scaffolds for Controlled Release of Active Agents” (The Trustees of Columbia University in the City of New York, priority 2010, published 2013)
# Details: Circular Dichroism Spectroscopy of released TGF-β3
substance,measurement,value
bovine serum albumin [BSA],"growth factor structure (ellipticity, degree of folding)",effective in preserving the α-helical structure of TGF-β3
